Data reported in ChEMBL document CHEMBL5506067, “Searching for Synthetic Opioid Rescue Agents: Identification of a Potent Opioid Agonist with Reduced Respiratory Depression” (J Med Chem, 2024).

Sequences of proteins named here, by UniProt entry; tags and fusion partners are left off.
UniProt P41146, whole entry: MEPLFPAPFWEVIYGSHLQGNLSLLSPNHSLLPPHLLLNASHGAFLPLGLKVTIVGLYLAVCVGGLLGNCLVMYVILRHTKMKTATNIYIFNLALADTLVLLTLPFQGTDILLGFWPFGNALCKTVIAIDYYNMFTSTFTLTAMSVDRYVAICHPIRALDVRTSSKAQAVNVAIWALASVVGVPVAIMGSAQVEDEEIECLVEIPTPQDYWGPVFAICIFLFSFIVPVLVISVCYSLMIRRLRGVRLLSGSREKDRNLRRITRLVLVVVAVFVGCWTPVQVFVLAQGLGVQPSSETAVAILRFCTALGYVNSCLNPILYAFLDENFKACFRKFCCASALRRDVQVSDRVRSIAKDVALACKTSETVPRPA

Target: Nociceptin receptor (Homo sapiens, UniProt P41146)
Experiment: Agonist activity at human NOR expressed in CHO-K1 cells assessed as decrease in cAMP level incubated for 30 mins in presence of forskolin by HitHunter cAMP analysis relative to control
Conditions: filed as agonist

Structure (SMILES): CN(C)[C@]1(c2ccc(Br)cc2)CC[C@](O)(CCc2ccccc2)CC1
- Emax: 101%
